Here are results for 1 substance from publication PMC8569185 (Frontiers in Pharmacology, 2021).

Protein sequences, listed by entry. Tags and fused reporters are not part of them. Lines headed by an entry give the natural chain unless they say otherwise; changes in a name come on top.
UniProt P33534: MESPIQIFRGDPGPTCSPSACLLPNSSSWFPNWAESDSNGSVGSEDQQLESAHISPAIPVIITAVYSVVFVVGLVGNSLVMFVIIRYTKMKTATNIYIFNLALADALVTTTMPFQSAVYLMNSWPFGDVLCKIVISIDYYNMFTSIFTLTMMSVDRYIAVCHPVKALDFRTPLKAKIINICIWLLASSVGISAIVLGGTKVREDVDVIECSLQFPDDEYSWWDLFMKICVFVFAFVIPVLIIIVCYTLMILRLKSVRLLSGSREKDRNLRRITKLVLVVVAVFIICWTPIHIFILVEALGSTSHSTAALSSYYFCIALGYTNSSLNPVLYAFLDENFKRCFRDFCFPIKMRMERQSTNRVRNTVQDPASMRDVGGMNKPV

For assay [1], the target named is T1, mouse KOR (Mus musculus, UniProt P33534). Type of assay: cell-based. On the set-up: expressed in transfected cells; host or cells: HEK293, transient co-transfection. Particulars: 10 µM, positive control used as reference value.
Assay [2] addresses T1, mouse KOR. More on the design: method as in Muratspahić et al., 2021. The note with it: ref Muratspahić et al., 2021, cited from earlier work.
For assay [3], the target named is T1, mouse KOR. Particulars: read-out: Affinity Ki ± SD; cited from earlier work.

What is called EC50 is the midpoint of the concentration-response curve. A word on the Ki: it is a dissociation constant, usually derived from enzyme kinetics or from competition with a known ligand. Turning to “Dyn A 1–13 amide trifluoroacetate salt (YGGFLRRIRPKLK; Dynorphin A(1-13) C-terminal amide, trifluoroacetate salt; UniProt P01213 207-219, looked up, fragment)”, the “extent of β-arrestin-2 recruitment” value in the assay with mouse KOR [1] worked out at 100%. The EC50 in the assay with mouse KOR [2] (cAMP inhibition at KOR, read-out: Potency cAMP EC50 ± SD) was 2.8 ± 0.7 nM. In addition, the “Efficacy cAMP Emax ± SD” value with mouse KOR [2] (reference set to 100%) is listed as 100.0 ± 0.0%. Besides, in the assay with mouse KOR [3], the inhibitory constant (Ki) is 0.031 ± 0.003 nM.
